# Source: PubChem BioAssay AID1203 (The Scripps Research Institute Molecular Screening Center, 2008)
# Only a part is listed here, and it is no random draw. Activity calls are given as the source filed them.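 Rule for the calls: active = activation above the mean across all tested compounds plus 3 SD, cutoff set per campaign (cut at about 5.5% in these data); inactive = the rest.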
# Test: Hsp70 promoter-driven reporter induction – cell-based, HeLa, Hsp70 promoter luciferase, luminescence, 10 µM, primary screen (AID 1203);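 note: 100% = MG132 at 30 µM as the positive control and 0% = DMSO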
# Settings: at 10 µM, active compounds read high, scaled: vehicle 0, proteasome-inhibitor control 100%
row,Structure (SMILES),activation
1,CCOc1ncccc1C(=O)NCC1(N2CCOCC2)CCCCC1,inactive: -0.06%
2,CC(C)(C)OC(=O)N1CCC(Nc2ccccc2)CC1,inactive: -0.16%
3,CCC(CO)(C(=O)OC1CN2CCC1CC2)c1ccccc1 (stereo not given),inactive: -0.01%
4,COc1cc(OC)cc(C(=O)NCC2(N3CCOCC3)CCCCC2)c1,inactive: 0.07%
5,CCN1CCC(Nc2cccc(F)c2)CC1,inactive: -0.51%
6,CN(C)c1ccc(C(=O)NCC2(N3CCCCC3)CCCCC2)cc1,inactive: -0.05%
7,N#Cc1ccc(C(=O)NCC2(N3CCCCC3)CCCCC2)cc1,inactive: -0.12%
8,c1ccc(CN2CCC(Nc3ccccc3)CC2)cc1,inactive: -0.29%
9,COc1ccc(C(=O)NCC2(N3CCOCC3)CCCCC2)cc1OC,inactive: -0.07%
10,N/C(=N\O)c1c(N)no[n+]1[O-],inactive: 0.08%
11,O=C(OC1CN2CCC1CC2)C1c2ccccc2C=Cc2ccccc21 (stereo not given),inactive: -0.03%
12,CN(C)c1cccc(C(=O)NCC2(N3CCCCC3)CCCCC2)c1,inactive: 1.31%
13,COc1ccc(CN(CCCl)CCCl)cc1Cl,inactive: -0.29%
14,CC(C)c1ccc(NC2CCN(C(=O)OC(C)(C)C)CC2)cc1,inactive: 0.17%
15,CN1CCC(Nc2cccc(F)c2)CC1,inactive: -0.29%
16,O=C(NCC1(N2CCCCC2)CCCCC1)c1cccc([N+](=O)[O-])c1,inactive: -0.16%
17,N#CC1(Nc2ccccc2)CCN(CCc2ccccc2)CC1,inactive: -0.17%
18,COc1ccc(NC2CCN(C(=O)OC(C)(C)C)CC2)cc1,inactive: -0.21%
19,CN1CCN(CCOC(=O)C(O)(c2ccccc2)c2ccccc2)CC1,inactive: -0.2%
20,O=C(NCC1(N2CCOCC2)CCCCC1)c1cc(=O)[nH]c2ccccc12,inactive: -0.18%
21,COc1ccc(NC2CCN(CCc3ccccc3)CC2)c(OC)c1,inactive: 0.3%
22,COc1ccc(C(=O)NCC2(N3CCCCC3)CCCCC2)c(OC)c1OC,inactive: 0.27%
23,O=C(NCC1(N2CCOCC2)CCCCC1)c1cc2ccccc2o1,inactive: 0.1%
24,CCOC(=O)N1CCC(Nc2ccc(OC)cc2)CC1,inactive: -0.18%
25,O=C(OC1CN2CCC1CC2)C1c2ccccc2Oc2ccccc21 (stereo not given),inactive: -0.07%
